# Results published in patent publication US20090186949A1, “Method for Treating Endothelial and Epithelial Cell Disorders by Administering High Molecular Weight PEG-Like Compounds” (THE UNIVERSITY OF CHICAGO, priority 2006, published 2009).
# Key:
# [1] = test system: P. aeruginosa (strain PAO1) whole cells and membrane fractions; type: binding, Pseudomonas aeruginosa
# [2] = test system: rhlI / C4-HSL in P. aeruginosa PAO1; experiment: Quorum sensing activation (rhlI mRNA, C4-HSL in supernatants); type: cell-based, Pseudomonas aeruginosa
Substance,binding to P. aeruginosa cells / cell membranes (ELISA) [1],rhlI transcription (Northern blot) [2]
IL-2: human cytokine,No binding was observed,
TNF-α: human cytokine,No binding was observed,but not
